# Laboratory results: patent publication US20070054902A1, “Isoxazole derivatives as peroxisome proliferator-activated receptors agonists” (SHIONOGI & CO., LTD., priority 2003, published 2007)
# Sequences of proteins named here, by UniProt entry; tags and fusion partners are left off.
# UniProt P11712, whole entry: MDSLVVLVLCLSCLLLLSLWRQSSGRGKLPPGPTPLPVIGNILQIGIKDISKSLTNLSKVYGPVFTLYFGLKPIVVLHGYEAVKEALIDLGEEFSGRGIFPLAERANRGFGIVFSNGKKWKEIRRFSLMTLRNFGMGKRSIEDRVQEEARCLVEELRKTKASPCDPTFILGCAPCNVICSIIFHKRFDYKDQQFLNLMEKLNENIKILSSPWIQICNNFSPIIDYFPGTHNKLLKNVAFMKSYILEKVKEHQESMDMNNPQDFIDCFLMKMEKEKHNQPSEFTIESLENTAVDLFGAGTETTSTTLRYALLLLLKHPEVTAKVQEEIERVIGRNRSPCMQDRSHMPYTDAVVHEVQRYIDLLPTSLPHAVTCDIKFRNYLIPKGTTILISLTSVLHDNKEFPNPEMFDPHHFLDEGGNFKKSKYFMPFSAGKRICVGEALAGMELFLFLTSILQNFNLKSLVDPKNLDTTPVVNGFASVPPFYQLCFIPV
# Target: CYP2C9 (Homo sapiens, UniProt P11712)
# Test: Test for inhibition of CYP2C9 enzyme (tolbutamide 4-position hydration, human liver microsomes)
# Settings: human liver microsomes 0.25 mg/ml, 5 μM tolbutamide, 30 minutes, 37° C.; solvent control = 100%
smiles,measurement,value
Cc1cc(SCc2cc(-c3ccc(C(F)(F)F)cc3)on2)ccc1OCC(=O)O,Residual activity (%) CYP2C9,28%
